## Yeast mating assay B: variants of the scFv Ab-14

Data: MIT Lincoln Laboratory AlphaSeq set, Li et al. 2023, doi:10.1038/s41467-023-39022-2, as distributed in FLAb.

Antigen: PDVDLGDISGINAS, a 14-residue peptide of the SARS-CoV-2 spike HR2 region.

The variants keep the heavy chain, the linker and the frameworks of Ab-14 (scFv order VH, a (GGGGS)3 linker, VL).
VH: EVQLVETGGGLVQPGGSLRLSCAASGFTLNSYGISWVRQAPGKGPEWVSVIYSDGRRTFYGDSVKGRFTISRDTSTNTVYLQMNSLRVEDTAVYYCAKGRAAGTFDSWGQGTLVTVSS
VL: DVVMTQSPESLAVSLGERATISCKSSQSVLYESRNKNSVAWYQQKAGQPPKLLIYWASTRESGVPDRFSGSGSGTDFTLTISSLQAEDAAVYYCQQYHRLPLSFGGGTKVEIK

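Phage display of a naive human antibody library on the peptide gave the parent. The variants were designed computationally from a first round of random CDR variants and then made and measured. Several design methods are mixed in this list. AlphaSeq pools MATa yeast showing the antibodies with MATalpha yeast showing the peptide. After mating in shaken culture at 30 °C for 16 h, diploids were selected and their barcode pairs sequenced. A regression on co-assayed BCL2-family reference pairs converts the normalised counts of each replicate to an apparent Kd. Mating was done six times.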

Each variant is given by its three light chain CDRs, as the data file delimits them; those of the parent are KSSQSVLYESRNKNSVA, WASTRES, QQYHRLPLS. This list holds designs with at most six substitutions. Each Kd is an estimate from the mating assay, the geometric mean of the replicates in which the pair was seen; lower is stronger. A pair that was not seen in any replicate is written "nd"; this usually means weak binding, but a binder can also be missed. The authors averaged sequences with at least three values out of six and counted those with two or fewer as poor binders. Empty control strains, which show no peptide, gave a signal in 4% of pairings with all light chain designs; the median was 430 nM and 95% of these signals were weaker than 38 nM. No background was subtracted. Where one sequence has several entries in the source, the replicates are pooled. A sequence measured in both rounds can read differently, since the two assays cover different ranges.

Variant KMSQSVLYESNNKNSVA, AASTRES, QQYHQLPLS gave 1.6 nM (6 of 6 replicates).
Variant KLYMSTLYESRNKNSVA, NASTRES, QQYHRLPLS gave 510 pM (6 of 6 replicates).
Variant KCSQSVWQESRNKNSVA, NASQRER, QQYHRLPLS gave 3.0 nM (6 of 6 replicates).
Variant KFSQSVLYESRNKNSVA, DASTRES, QQYHRLPLS gave 680 pM (12 of 12 replicates).
Variant KFSQSVDYESRNKASVA, DASTRMS, QQYHRLPLS gave 1.8 nM (6 of 6 replicates).
Variant KHSQSVGYESRNKNSVA, TASTRES, QQYHRLPLS gave 22 nM (4 of 6 replicates).
Variant KSCQSVLYESRNKNSVA, WASTRAD, QQYHRLPLS gave 6.0 nM (6 of 6 replicates).
Variant KMSQSILYESRNKNSVA, WASTRES, QQYHRLPLS gave 15 nM (6 of 6 replicates).
Variant KMEQGVLYESRNKNSVA, GASMRES, QQYHRLPLS gave 1.5 nM (6 of 6 replicates).
Variant KFSQSVLYESRVKNSVA, NASQRES, QQYHRLPLS gave 1.0 nM (6 of 6 replicates).
Variant KSSQSDLYESRNKNSVA, WASTCES, QQYHRLPLS gave nd (0 of 6 replicates).
Variant KSSQSVLYESRNKNSVA, HASQRES, QQYHRHPLS gave 26 nM (6 of 6 replicates).
Variant KSSQSHLYESRNFNSVA, GASTRES, QQYHRLPLS gave 1.6 nM (6 of 6 replicates).
Variant VSAQLVLCEDRNKNSVA, WASTRES, QQYHRLPIS gave nd (0 of 6 replicates).
Variant KSEQSSPYESRNKNSVA, NASLRCS, QQYHRLPLS gave 1.3 nM (6 of 6 replicates).
Variant KSSQSVLYERVNKNSVA, WYSTRVS, QQYHRLPLS gave nd (0 of 6 replicates).
Variant KLSQSVGYESRNKNSVA, EASTRES, QQYHRLPLS gave 770 pM (6 of 6 replicates).
Variant KSSQSWLYESMNKNSVA, GASTREV, QQYHRLPLS gave 810 pM (6 of 6 replicates).
Variant KVSQSLLYESRNSNSVA, WASTRES, QQYHRLPLS gave 4.8 nM (6 of 6 replicates).
Variant KLSQSQLYESRMKNSVA, NASTRCS, QQYHRLPLS gave 1.4 nM (6 of 6 replicates).
Variant HLSDSDLYESRNKNSVA, NASTRES, QQYHRLPLN gave 100 nM (5 of 6 replicates).
Variant KLMQSHLYESRNKNSVA, NASTRES, QQYHRLPLS gave 840 pM (6 of 6 replicates).
Variant KAQQSDPYESRNKNSVA, SASTRSS, QQYHRLPLS gave 4.1 nM (6 of 6 replicates).
Variant KQSQSVLYESRNKNNVA, EASTRES, QQYHRLPLS gave 1.0 nM (6 of 6 replicates).
Variant KLSQSELYESRNKNNVA, NASQRES, QQYHRLPLS gave 530 pM (6 of 6 replicates).
Variant KLSQSFLYESRNKNSVA, NASQREQ, QQYHRLPLS gave 770 pM (6 of 6 replicates).
Variant KSSISYLYESLNKNSVA, EASTRES, QQYHRLPLS gave 11 nM (6 of 6 replicates).
Variant KLEGSWLYESRNKNSVA, NASQRES, QQYHRLPLS gave 25 nM (6 of 6 replicates).
Variant KSSPSVLYESFNKNSVA, AASTRES, QQYHRLPLS gave nd (0 of 6 replicates).
Variant KVSPSVLYESFNKNSVA, NASTRMS, QQYHRLPLS gave 1.6 nM (6 of 6 replicates).
Variant KSLQEVGYHSRNKNSVA, HASTRED, QQYHRLPLS gave 3.3 nM (6 of 6 replicates).
Variant KTSQAVLYESRNKNSVA, WASTRES, QQYHRLPLD gave 280 nM (2 of 6 replicates).
Variant KLEESELYESRNKNSVA, NASTRES, QQYHRLPLS gave 3.3 nM (6 of 6 replicates).
Variant KVHQSVLYESRNKNSVA, NASTRES, QQYHRLPLS gave 600 pM (6 of 6 replicates).
Variant KSSQSVLYESTNKNSVA, WASTRES, QQDHGLPLS gave nd (0 of 6 replicates).
Variant KFSQSELYESRMKNSVA, NASQRES, QQYHRLPLS gave 1.2 nM (6 of 6 replicates).
Variant KSSQSVLYEWRNKNSVA, WASTRES, QQYFILPLS gave 15 nM (6 of 6 replicates).
Variant IFYQSVLYEDRNKNSVA, WATTRES, QQYHRLELS gave nd (0 of 6 replicates).
Variant KSSQSVLMESRNKNSVA, NASIRES, QQIHRTPLS gave nd (0 of 6 replicates).
Variant KSSQSVDYESRNKNNVA, DASTRES, QQYHRLPLS gave 910 pM (6 of 6 replicates).
Variant KVSDSYLLESRNKNSVA, EASTRES, QQYHRLPLS gave 1.6 nM (6 of 6 replicates).
Variant KASQSELYESRNKNSVA, GASTRES, QQYHRLPLI gave 2.6 nM (6 of 6 replicates).
Variant KSSRSVLTESRFKYSVA, WASTRES, QQYHRLPLS gave nd (0 of 6 replicates).
Variant KSSQSVLRETRNKNSVA, WASTRES, QQYHRLPLS gave 630 nM (2 of 6 replicates).
Variant KISQSVLYESRNKNSVA, EGSTRES, QQYHRLPLS gave 570 pM (6 of 6 replicates).
Variant ILQQSVWYESRNKNSVA, DASVRES, QQYHRLPLS gave 4.5 nM (6 of 6 replicates).
Variant KSSQYVLYPQRNKNSVA, WASTRES, QQYHRLPLS gave nd (0 of 6 replicates).
Variant KLSQSWLYESRNKNSVA, EASTREM, QQYHRLPLS gave 920 pM (6 of 6 replicates).
Variant KSSQSFLYESRNKNSVA, GASTRES, QQYHRLCLS gave nd (0 of 6 replicates).
Variant KSSQSPLYESRNKNSVA, WASQRES, QQYHRLPLS gave 21 nM (6 of 6 replicates).
Variant KVSESELYESRNKNSVA, EASTRES, QQYHRLPLS gave 550 pM (6 of 6 replicates).

Again, the first 8 entries without any signal:

{"CDR-L1": "KSSQSDLYESRNKNSVA", "CDR-L2": "WASTCES", "CDR-L3": "QQYHRLPLS", "Kd (apparent)": "nd", "replicates with signal": "0/6"}
{"CDR-L1": "VSAQLVLCEDRNKNSVA", "CDR-L2": "WASTRES", "CDR-L3": "QQYHRLPIS", "Kd (apparent)": "nd", "replicates with signal": "0/6"}
{"CDR-L1": "KSSQSVLYERVNKNSVA", "CDR-L2": "WYSTRVS", "CDR-L3": "QQYHRLPLS", "Kd (apparent)": "nd", "replicates with signal": "0/6"}
{"CDR-L1": "KSSPSVLYESFNKNSVA", "CDR-L2": "AASTRES", "CDR-L3": "QQYHRLPLS", "Kd (apparent)": "nd", "replicates with signal": "0/6"}
{"CDR-L1": "KSSQSVLYESTNKNSVA", "CDR-L2": "WASTRES", "CDR-L3": "QQDHGLPLS", "Kd (apparent)": "nd", "replicates with signal": "0/6"}
{"CDR-L1": "IFYQSVLYEDRNKNSVA", "CDR-L2": "WATTRES", "CDR-L3": "QQYHRLELS", "Kd (apparent)": "nd", "replicates with signal": "0/6"}
{"CDR-L1": "KSSQSVLMESRNKNSVA", "CDR-L2": "NASIRES", "CDR-L3": "QQIHRTPLS", "Kd (apparent)": "nd", "replicates with signal": "0/6"}
{"CDR-L1": "KSSRSVLTESRFKYSVA", "CDR-L2": "WASTRES", "CDR-L3": "QQYHRLPLS", "Kd (apparent)": "nd", "replicates with signal": "0/6"}